{"sequences": {"note": "By UniProt entry, the sequences of proteins in these tests, tags left out.", "UniProt P35462, whole entry G9S": "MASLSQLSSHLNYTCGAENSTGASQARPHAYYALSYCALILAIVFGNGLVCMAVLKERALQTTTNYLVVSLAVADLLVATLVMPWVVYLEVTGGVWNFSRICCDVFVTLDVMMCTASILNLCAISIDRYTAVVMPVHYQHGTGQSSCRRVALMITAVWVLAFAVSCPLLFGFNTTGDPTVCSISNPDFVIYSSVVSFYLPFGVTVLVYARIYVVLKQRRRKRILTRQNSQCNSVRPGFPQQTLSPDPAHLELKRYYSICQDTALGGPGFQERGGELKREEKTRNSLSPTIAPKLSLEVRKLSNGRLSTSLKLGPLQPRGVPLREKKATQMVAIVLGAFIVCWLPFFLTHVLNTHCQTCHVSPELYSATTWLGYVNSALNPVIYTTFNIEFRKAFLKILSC"}, "source": "patent US20060052435A1", "about": "“Selective dopamin d3 receptor agonists for the treatment of sexual dysfunction” (priority 2001, published 2006)", "key": {"[1]": {"molecular_target": "T1, human dopamine D3 receptor (Homo sapiens, UniProt P35462, G9S)"}, "[2]": {"molecular_target": "T1, human dopamine D3 receptor", "test": "cell-based"}}, "data": [{"compound": "CN1CCc2cccc3c2[C@H]1Cc1ccc(O)c(O)c1-3", "note": "[Apomorphine]", "values": [{"measurement": "Dopamine receptor preference", "setting": "[1]", "value": "Balanced"}, {"measurement": "functional D2/D3 preference", "setting": "[1]", "value": "balanced agonists"}]}, {"compound": "CN[C@@H]1Cc2cccc3[nH]c(=O)n(c23)C1.O=C(O)/C=C\\C(=O)O", "note": "[PNU-95666]", "values": [{"measurement": "EC50", "setting": "[2]", "value": 172, "unit": "nM"}]}]}
